Our source for the Km values is publication PMC6116245 (Viruses, 2018).

For the data set, the system named is CC(C)C[C@H](NC(=O)[C@H](CCCNC(=N)N)NC(=O)[C@H](Cc1ccccc1)NC(=O)c1ccc(N=Nc2ccc(N(C)C)cc2)cc1)C(=O)N[C@@H](CCC(=O)O)C(=O)N[C@@H](C)C(=O)N[C@@H](CC(=O)O)C(=O)N[C@@H](CC(=O)O)C(=O)NCC(=O)NCCNc1cccc2c(S(=O)(=O)O)cccc12. Briefly: purified protein, by the assay type. Conditions: other: 0-100 µM substrate, 1 h at 37 °C.

On to “FCV protease (recombinant FCV Pro-Pol) (Feline calicivirus (strain Urbana))”, for which the Michaelis-Menten constant (Km) is 33.5 µM.

Usually Km stands for the concentration of substrate that gives half-maximal velocity.
